The Ki is the dissociation constant of the complex between target and ligand, obtained from inhibition or displacement. Higher therefore signals a looser hold on the target.

The chains behind the UniProt entries cited, without tags or fusion partners. Where a name states a change or a piece, a line headed by the entry shows the natural chain unless it says otherwise.
UniProt Q62758: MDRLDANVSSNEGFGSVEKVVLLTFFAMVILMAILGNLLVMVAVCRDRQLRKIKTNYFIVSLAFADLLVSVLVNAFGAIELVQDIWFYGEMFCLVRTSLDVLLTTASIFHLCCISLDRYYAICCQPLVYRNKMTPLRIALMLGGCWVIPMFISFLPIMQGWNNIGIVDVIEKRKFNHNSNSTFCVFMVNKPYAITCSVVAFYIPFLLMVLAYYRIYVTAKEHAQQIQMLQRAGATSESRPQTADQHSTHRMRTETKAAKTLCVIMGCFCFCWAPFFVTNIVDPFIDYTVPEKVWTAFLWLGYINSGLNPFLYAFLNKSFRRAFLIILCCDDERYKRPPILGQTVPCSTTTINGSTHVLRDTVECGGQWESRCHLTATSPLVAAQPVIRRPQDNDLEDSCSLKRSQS

We go through one compound from BindingDB's records for PubMed 8226867 (Synaptic Pharmaceutical, 1993).

This assay has as its target 5-hydroxytryptamine receptor 4 (Rattus norvegicus, UniProt Q62758).

On to `NCCc1c[nH]c2ccc(O)cc12` [[3H]-5-HT], for which the inhibition constant (Ki) worked out at 200 nM.
